In patent US20260384421A1, “NOVEL COMPOUNDS THAT CAN BE USED AS THERAPEUTIC AGENTS” (published 2026):
Read-outs that look alike come from different tables or passages of the source.

How the values were obtained:
MDA-MB-231 cells = assay: alamarBlue proliferation assay with MDA-MB-231 cells (glucose-free Leibovitz's L-15 medium)
TANQUE cells = assay: alamarBlue proliferation assay with TANQUE cells; settings: read-out: Activity on TANOUE: IC50, RPMI 1640 medium, 10% FBS
NB-4 cells = assay: alamarBlue proliferation assay with NB-4 cells; settings: read-out: Activity on NB-4: IC50, RPMI 1640 medium, 10% FBS
HCT-116 cells = assay: alamarBlue proliferation assay with HCT-116 cells; settings: read-out: Activity on HCT-116: IC50, McCoy's 5A medium, 10% FBS
BHY cells = assay: alamarBlue proliferation assay with BHY cells; settings: read-out: Activity on BHY: IC50, DMEM medium, 10% FBS
A-549 cells = assay: alamarBlue proliferation assay with A-549 cells; settings: read-out: Activity on A-549: IC50, DMEM medium, 10% FBS
LL/2 cells = assay: alamarBlue proliferation assay with LL/2 cells; settings: read-out: Activity on LL/2: IC50; LL/2 murine Lewis lung carcinoma cells, DMEM medium, 10% FBS
[1] = read-out: Activity (MDA): antiproliferative activity on MDA-MB-231 cells, IC50 category, MDA-MB-231 cells cultivated in glucose-free Leibovitz's L-15 medium
[2] = read-out: Activity on MDA-MB-231 (IC50), glucose-free Leibovitz's L-15, 10% FBS, day 5, alamarBlue

| Compound | IC50 (MDA-MB-231 cells; [1]) [nM] | IC50 (MDA-MB-231 cells; [2]) [nM] | IC50 (TANQUE cells) [nM] | IC50 (NB-4 cells) [nM] | IC50 (HCT-116 cells) [nM] | IC50 (BHY cells) [nM] | IC50 (A-549 cells) [nM] | IC50 (LL/2 cells) [nM] |
| --- | --- | --- | --- | --- | --- | --- | --- | --- |
| O=C(c1ccc(Oc2ccc(C3CCC4(CC3)OCCO4)cc2CO)cc1)N1CCN(Cc2ccc3oc(=O)ccc3c2)CC1 | < 1000 | ≤ 200 | ≤ 200 | ≤ 200 | ≤ 200 | ≤ 200 | ≤ 200 | ≤ 1000 |
| O=C(c1ccc(Oc2ccc(C3CCC4(CC3)OCCO4)cc2CO)cc1)N1CCCN(Cc2ccc(C(F)(F)F)cc2)CC1 | < 1000 | ≤ 200 | ≤ 200 | ≤ 200 | ≤ 200 | ≤ 200 | ≤ 200 | ≤ 200 |
| O=C(c1ccc(Oc2ccc(C3CCC4(CCCC4)CC3)cc2CO)cc1)N1CCN(Cc2ccccc2)CC1 | – | ≤ 200 | ≤ 200 | ≤ 200 | ≤ 200 | ≤ 200 | ≤ 200 | ≤ 5000 |
